HCMV UL50-53 inh: inhibitors of HCMV UL50-UL53 nuclear egress complex interaction. HTRF UL50-UL53 interaction, normalized percent inhibition. hit rate 0.15% among 190,000. inhibition, % (no concentration beside the values). AID 1918969; in the data active = inhibition above about 27%, passing the limit was not always enough
GIV-Gai inh: inhibitors of GIV GBA-motif binding to rat Galpha-i3; P08753; Galpha-i3/FITC-GIV peptide fluorescence polarization, 90 min; hits give low values; scaled: aluminum fluoride 0%, vehicle 100%; percent of control (FP), % (test concentration not listed); AID 1224905; hit rate 0.42% among 210,000;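 active = replicate mean at 85% of control or lower, very high polarization wells dropped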;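 note: wells of about 15 µL received 100 nL stock; the first replicate is given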
The depositor's hits bear a star; / = not tested or not shown. In the library only some 0.43% were active in any assay of this set; here they are far more common.

SMILES	HCMV UL50-53 inh	GIV-Gai inh
CN(CCO)c1nc(N)c2c(N)nc3c(c2c1C#N)CC(=O)N3C1CCCC1	101*	/
Cc1ccc(C(=O)Nc2ccc3c(c2)CCC(=O)N3C)cc1	-26	108
CC1=CC(=C2C(=O)NC(=S)NC2=O)C=C(C)N1CCc1ccccc1	-29	98
CC1=CC(=C2C(=O)NC(=O)NC2=O)C=C(C)N1c1ccccc1	-4	-4.9*
Cc1ccc(-c2nc(C)cc(OCC(=O)Nc3c(C)cc(C)cc3C)n2)cc1	/	103
CCN(CC)c1ccc2cc(C(=O)Nc3cccc(C(F)(F)F)c3)c(=O)oc2c1	-5	102
CCN(CC)c1ccc2cc(C(=O)NC3CCCCC3)c(=O)oc2c1	-24	/
CCN(CC)c1ccc2cc(NC(=O)CCC(=O)O)c(=O)oc2c1	-38	84*
CCN(CC)c1ccc2cc(C(=O)Nc3ccc(NC(C)=O)cc3)c(=O)oc2c1	-16	83*
CCOC(=O)CSc1nn(C)c2nc3c(c(=O)n12)C(C)(C)Cc1ccccc1-3	-30	104
CN(C)c1ccc(/C=C2/CCC/C(=C\c3ccc(N(C)C)cc3)C2=O)cc1	-15	188
CC(C)/C=C1\CC/C(=C\c2ccc(N(C)C)cc2)C1=O	/	-75*
CCN(CC(=O)NC1CCS(=O)(=O)C1)C(=O)c1ccccc1-c1ccccc1 (configuration not stated)	-12	/
CC(=O)n1c(O)c(/C=C2\C=c3ccc(C)cc3=NC2=O)sc1=N	/	111
CC(=O)n1c(/C=C2\C=c3ccccc3=NC2=O)c(O)[nH]c1=S	15	49*
Cc1csc(-c2cc(S(=O)(=O)NC3CCCC3)cn2CC(=O)N2CCCC2)n1	/	106
O=C(O)COc1ccc2c(c1)C(=O)c1cc(OCC(=O)O)ccc1-2	-57	84*
O=C(O)COc1ccc2c(c1)C(=NO)c1cc(OCC(=O)O)ccc1-2	/	106
Cc1ccc2c(C#N)cc(C)cc2c1	-37	103
CCOC(=O)c1nnn(-c2nonc2N)c1CN1CCCCC1	/	122
CON(C)c1nc(-c2cccnc2)nc2ccccc12	-16	/
CCN1/C(=C\C=C2/C(=O)NC(=O)N(C)C2=O)Sc2ccccc21	-44	-61*
CCN1/C(=C\C=C2\C(=O)N(C)C(=S)N2C)Sc2ccccc21	/	270
O=C1/C(=C/C2CC=CCC2)SC(=S)N1CC1CCCO1 (configuration not stated)	/	100
O=C1/C(=C/c2ccc(O)cc2)SC(=S)N1CC1CCCO1 (configuration not stated)	/	-24*

One compound at a time, from the list above.
Results for CC(C)/C=C1\CC/C(=C\c2ccc(N(C)C)cc2)C1=O → HCMV UL50-53 inh = /; GIV-Gai inh = -75*
Results for CCN(CC)c1ccc2cc(C(=O)NC3CCCCC3)c(=O)oc2c1 → HCMV UL50-53 inh = -24; GIV-Gai inh = /

Later entries.
SMILES	HCMV UL50-53 inh	GIV-Gai inh
Cc1ccc2c(c1)Oc1ccc(S(=O)(=O)N3CCCCC3)cc1C(=O)N2	/	105
CCOC(=O)C1=C(C)N=c2s/c(=C/c3cc([N+](=O)[O-])ccc3N3CCN(C)CC3)c(=O)n2C1c1ccc(OC)cc1 (configuration not stated)	/	104
COc1cc(OC)c(OC)cc1/C=C1/SC(=S)N(CC(=O)O)C1=O	-51	134
COCCN1C(=O)/C(=C/c2cc(OC)c(O)cc2Br)SC1=S	-39	-61*
Cn1c(Cc2cccs2)nnc1SCC(=O)N1CCNC1=O	-29	/
COC(=O)C1=CN(CCC23CC4CC(CC(C4)C2)C3)C=C(C(=O)OC)C1c1cccc(Br)c1	/	109
NNc1nc(-c2ccccc2)cc(-c2ccccc2O)n1	/	103
COc1ccc(-c2cc(-c3ccccc3O)nc(NC(N)=S)n2)cc1	51*	/
CCCCCCCCN1/C(=C/C=C/c2n(CCCCCCCC)c3cc(Cl)c(Cl)cc3[n+]2CCCCC)N(CCCCC)c2cc(Cl)c(Cl)cc21	/	144
C=CCN1/C(=C\C=C\c2n(CC=C)c3cc(Cl)c(Cl)cc3[n+]2CCCCCCCC)N(CCCCCCCC)c2cc(Cl)c(Cl)cc21	/	-62*
O=C(c1ccccc1F)N1CC(OCc2ccc(F)cc2)C1	-13	100
NC(C(=O)O)C(c1ccccc1)C(F)(F)F (configuration not stated)	12	/
C=CCN1C(=O)/C(=C\C=C2/CCCN2C)SC1=S	-78	-61*
CN1C(=O)/C(=C/C=C2/CCCN2C)N(C)C1=S	-188	183
CC(C)c1ccc(C2Oc3ccccc3C3CC(c4ccc(Br)cc4)=NN32)cc1 (configuration not stated)	-2	98
CC(C)(C)c1ccc(C2Oc3ccccc3C3CC(c4ccc(Br)cc4)=NN32)cc1 (configuration not stated)	42*	102
Cc1ccccc1/C=C/c1c[nH]c2ccccc12	-15	101
OCC[n+]1ccc(/C=C/c2c[nH]c3ccccc23)cc1	/	-18*
O=C(Oc1ccccc1)C1CCN(c2nc3ccccc3[nH]2)CC1	-1	105
C=CCn1c(C)nnc1SCC(=O)N1CCN(S(=O)(=O)c2ccc3ccccc3c2)CC1	-35	/
CCOC(=O)N1CCN(c2cc(NCCCC(=O)O)c3c4c(onc24)-c2ccccc2C3=O)CC1	-210	-74*
CC(C)CNc1cc(N2CCCC2)c2noc3c2c1C(=O)c1ccccc1-3	-35	133
O=C(O)CCCNc1cc(N2CCCC2)c2noc3c2c1C(=O)c1ccccc1-3	-30	111
CCOC(=O)C1CCN(c2cc(NCC(=O)O)c3c4c(onc24)-c2ccccc2C3=O)CC1	-131	-57*
CCNc1cc(N2CCCCCC2)c2noc3c2c1C(=O)c1ccccc1-3	-69	-20*

Already shown: an excerpt of the list.
SMILES	HCMV UL50-53 inh	GIV-Gai inh
O=C(Oc1ccccc1)C1CCN(c2nc3ccccc3[nH]2)CC1	-1	105
C=CCn1c(C)nnc1SCC(=O)N1CCN(S(=O)(=O)c2ccc3ccccc3c2)CC1	-35	/
CCOC(=O)N1CCN(c2cc(NCCCC(=O)O)c3c4c(onc24)-c2ccccc2C3=O)CC1	-210	-74*
CC(C)CNc1cc(N2CCCC2)c2noc3c2c1C(=O)c1ccccc1-3	-35	133

Other entries:
SMILES	HCMV UL50-53 inh	GIV-Gai inh
CCCCNc1cc(N2CCN(C3CCCCC3)CC2)c2noc3c2c1C(=O)c1ccccc1-3	-43	229
CCN1CCN(c2cc(NCC(=O)O)c3c4c(onc24)-c2ccccc2C3=O)CC1	-72	108
CCOC(=O)N1CCN(c2cc(NCCC(=O)O)c3c4c(onc24)-c2ccccc2C3=O)CC1	/	-79*
Cc1cccc(Nc2cc(NCc3ccccc3)c3noc4c3c2C(=O)c2ccccc2-4)c1	/	109
CCNc1cc(NCC)c2noc3c2c1C(=O)c1ccccc1-3	-41	207
CCNc1ccc2noc3c2c1C(=O)c1ccccc1-3	-188	-48*
O=C1c2ccccc2-c2onc3c(Br)cc(NCc4ccccc4)c1c23	/	-21*
Cc1sc(C)c(S(=O)(=O)Nc2ccc3c(c2)OCCO3)c1-c1cc(C(F)(F)F)on1	/	104
N#CC1=C(N)Oc2c(c(=O)oc3ccccc23)C12C(=O)N(CC(N)=O)c1ccccc12 (configuration not stated)	-15	106
O=C(c1ccc2c(c1)OCO2)N1CCC(c2nc(-c3ccc(F)cc3)no2)CC1	-17	104
CCOc1ccc(Nc2ccc3noc4c3c2C(=O)c2ccccc2-4)cc1	/	102
Cc1ccc(S(=O)(=O)N2CCN(c3cc(=O)n4nc(-c5ccccc5)sc4n3)CC2)cc1	34	104
O=c1cc(N2CCN(S(=O)(=O)c3ccc(F)c(F)c3)CC2)nc2sc(-c3ccccc3)nn12	60*	102
CCN(CC)S(=O)(=O)N1CCC(C(=O)NCCc2ccc(OC)c(OC)c2)CC1	/	103
Cc1cccc(-c2nccc(Nc3cccc(C(=O)NCC(C)C)c3)n2)c1	-11	104
CC(=O)NCc1nc2ccccc2n1CC(C)C	-12	/
COc1cc(-c2nc(C=Nc3ccc(C)cc3Br)c(O)o2)cc(OC)c1OC	/	110
Cc1ccc(N=Cc2nc(-c3cccc4ccccc34)oc2O)c(Br)c1	/	25*
Cc1sc2nc(CSC(C)C(=O)N=c3sc4ccccc4n3C)[nH]c(=O)c2c1C (configuration not stated)	-6	/

Bioassay records (PubChem BioAssay)
